Earlier results on three substances are cited in patent publication US20240115662A1, “METHODS OF TREATING HYPOGONADOTROPIC HYPOGONADISM AND COGNITION IMPAIRMENT FOLLOWING A TRAUMATIC BRAIN INJURY” (WISCONSIN ALUMNI RESEARCH FOUNDATION, priority 2021, published 2024).

Like-named read-outs stand apart in the source and are kept apart here.

One data set concerns female mice. The settings on record: cited from earlier work; for increase in the number of BrdU-labeled cells: female mice, LH subcutaneously 2 days.
The conditions of data set [1]: cited from earlier work; for terminal half-life: subcutaneous administration.

For the substance “LH: heterodimeric glycoprotein hormone, luteinizing hormone (β subunit SEQ ID NO:3)”, the “increase in the number of BrdU-labeled cells” value in the data set on female mice (SVZ) is given as 29%; in the data set on female mice (dentate gyrus) it was 53%. Also, the “SVZ and dentate gyrus proliferation” value in the data set on female mice (ovariectomized female mice) is “increased SVZ and dentate gyrus proliferation”. Also, the half-life result in data set [1] (in vivo) is reported as “about 20 minutes”.

“r-hLH: recombinant human luteinizing hormone”: the terminal half-life in data set [1] was 21 to 24 h.

Consider “recombinant hCG: recombinant human chorionic gonadotropin”, for which the terminal half-life in data set [1] was 32 to 33 h.
